{
  "source": "paper PMC6748613",
  "about": "(mAbs, 2019)",
  "binders": {"B1": {"name": "bH1-Fab variant W^H33-F^H98-M^H99-R^L30b (Fab, V domains shown)", "VH": "EVQLVESGGGLVQPGGSLRLSCAASGFNIKDTWIHWVRQAPGKGLEWVARIYPTNGYTRYADSVKGRFTISADTSKNTAYLQMNSLRAEDTAVYYCSRWGGFMFYAMDYWGQGTLVTVSS", "VL": "DIQMTQSPSSLSASVGDRVTITCRASQDIPRRISGYVAWYQQKPGKAPKLLIYWGSYLYSGVPSRFSGSGSGTDFTLTISSLQPEDFATYYCQQHYTTPPTFGQGTKVEIK"}},
  "biological_target": "vascular endothelial growth factor (VEGF)-A, isoform 165 (Homo sapiens, UniProt P15692-4)",
  "test": "SPR",
  "data": [
    {"binder": "B1", "values": [
      {"measurement": "ΔΔG_bind against the parental Fab", "value": -2.42, "unit": "kcal/mol"}
    ]}
  ]
}
